Key:
[1] = Body weight, survival and tolerance of mice bearing plc/prf/5 (Example 6); type: in vivo, nude mouse; conditions: day 13 after inoculation; 25 mg/kg i.v. QD×5; mean ± SE
From the text: Wherein QW×4W represents intravenous injection once a week for 4 weeks, BIW×4W represents intravenous injection […] for 4 weeks, the same below. (2) Experimental Results

[2] = Body weight, survival and tolerance of mice bearing Hep3B (Example 7); type: in vivo, mouse; conditions: 15 mg/kg i.v. (QD×5)×2W, mean ± SE

O=c1[nH]cc(F)c(=O)[nH]1 [5-FU, reference compound]
Body weight of animal [1]: 18.4 ± 0.5 g | Body weight of animal ([2]; day 16 after inoculation): 20.7 ± 0.4 g | Body weight of animal ([2]; day 44 after inoculation): 18.4 ± 0.3 g

Reference: patent publication US10098870B2 (JENKEM TECHNOLOGY CO., LTD. (BEIJING), priority 2013, dated 2018)
